Measured values as given in patent publication EP0567026B1, “4,1-Benzoxazepin derivatives as squalene synthase inhibitors and their use in the treatment of hypercholesteremia and as fungicides” (TAKEDA CHEMICAL INDUSTRIES, LTD., priority 1992, dated 1993).

Sequences of proteins named here, by UniProt entry; tags and fusion partners are left off.
UniProt Q02769, whole entry: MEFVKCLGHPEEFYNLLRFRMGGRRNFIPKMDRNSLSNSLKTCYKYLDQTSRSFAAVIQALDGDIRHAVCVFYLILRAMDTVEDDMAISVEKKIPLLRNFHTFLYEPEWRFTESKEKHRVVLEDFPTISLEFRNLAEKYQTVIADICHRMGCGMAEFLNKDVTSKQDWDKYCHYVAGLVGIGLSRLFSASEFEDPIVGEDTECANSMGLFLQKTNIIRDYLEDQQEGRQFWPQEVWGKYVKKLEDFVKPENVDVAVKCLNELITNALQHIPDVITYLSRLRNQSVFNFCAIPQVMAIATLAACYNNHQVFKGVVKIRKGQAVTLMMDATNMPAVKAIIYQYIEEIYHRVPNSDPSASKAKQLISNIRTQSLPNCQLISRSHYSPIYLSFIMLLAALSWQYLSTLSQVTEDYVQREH
UniProt P37268, whole entry: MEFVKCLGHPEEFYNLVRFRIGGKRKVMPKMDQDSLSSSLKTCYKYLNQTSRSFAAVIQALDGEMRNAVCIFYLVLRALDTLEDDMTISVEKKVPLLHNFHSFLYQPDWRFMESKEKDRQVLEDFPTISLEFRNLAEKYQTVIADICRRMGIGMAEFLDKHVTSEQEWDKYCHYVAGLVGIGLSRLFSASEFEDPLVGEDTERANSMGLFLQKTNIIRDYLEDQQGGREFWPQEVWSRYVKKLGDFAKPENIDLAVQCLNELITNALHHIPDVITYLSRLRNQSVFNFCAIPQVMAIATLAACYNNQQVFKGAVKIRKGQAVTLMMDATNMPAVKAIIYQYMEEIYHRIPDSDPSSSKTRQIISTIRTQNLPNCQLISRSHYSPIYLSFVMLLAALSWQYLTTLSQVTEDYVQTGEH

Legend:
squalene synthetase [1] = biological target: squalene synthetase (Rattus norvegicus, UniProt Q02769); assay: Squalene synthetase inhibitory activity, rat-derived enzyme (liver microsome fraction), [1-3H] farnesyl pyrophosphate; details: read-out: Rat Enzyme (squalene synthetase inhibitory activity, IC50), 5 uM [1-3H] farnesyl pyrophosphate, 37°C, 45 minutes
Description: (§1) The squalene synthetase inhibitory activity was assayed as follows with the enzyme solutions described in the subsequent Experimental Examples 2 and 3.
(§2) More specifically, an enzyme solution (protein content 0.8 ug) prepared in Experimental Example 1 or 2 was added to a solution (total volume 50 ul)) containing 5 uM [1-^3H] farnesyl pyrophosphate (specific activity 25 uCi/mole), 1 mM NADPH, 5 mM MgCl2, 6 mM glutathione, a 100 mM buffer solution of potassium phosphate (pH 7.4) and a test drug (used as an aqueous solution or a DMSO solution), then the reaction was allowed to proceed at 37°C for 45 minutes. To the reaciton mixture was added 150 ul of a mixture of chloroform and methanol (1:2) to suspend the reaction, followed by adding 50 ul of chloroform and 50 ul of a 3N aqueous solution of sodium hydroxide. 50 ul of the chloroform layer (lower layer) containing the reaction mixture having squalene as the principal component and 3 ml of toluene-based liquid scintillator were mixed, and its radioactivity was determined by means of a liquid scintillation counter.
(§3) The squalene synthetase inhibitory activity was expressed in terms of the concentration inhibiting by 50% the radioactivity taken into the chloroform layer (IC50, molar concentration (M)).
An SD male rat (6 week old) was killed by bleeding, and its liver was excised. About 10 g of the liver was washed with a physiological saline solution cooled with ice, which was then homogenized in 15 ml of an ice-cooled buffer solution [100 mM potassium phosphate (pH 7.4), 15 mM nicotinamide, 2 mM MgCl2], followed by centrifugation for 20 minutes (4°C) with 10000 Xg. The supernatant layer was separated and subjected to further centrifugation for 90 minutes (4°C) with 105000 Xg. The sediment was then suspended in an ice-cooled 100 mM phosphate buffer solution (pH 7.4), which was again subjected to centrifugation for 90 minutes (4°C) with 105000 Xg. The sediment thus obtained (microsome fraction) was suspended in an ice-cooled 100 mM potassium phosphate buffer (pH 7.4) (about 40 mg/ml protein concentration, determined with BCA protein assay kit of Pias Co., Ltd.). This suspension was used as the enzyme solution.

squalene synthetase [2] = biological target: squalene synthetase (Homo sapiens, UniProt P37268); assay: Squalene synthetase inhibitory activity, human-derived enzyme (HepG2 microsome fraction), [1-3H] farnesyl pyrophosphate; details: read-out: Man Enzyme (squalene synthetase inhibitory activity, IC50), 5 uM [1-3H] farnesyl pyrophosphate, 37°C, 45 minutes
Description: as §1, §2, §3
Human hepatic carcinoma cells HepG2 (about 1 x 10^9 cells) obtained by incubation on a Dulbecco-modified Eagle's medium (37°C in the presence of 5% CO2) were suspended in 10 ml of an ice-cooled buffer solution [100 mM potassium phosphate buffer (pH 7.4), 30 mM nicotinamide and 2.5 mM MgCl2]. The cells were crashed by means of ultrasonication (for 30 seconds, twice). From the sonicate thus obtained, the microsome fraction was obtained by the same procedure as in Experiment Example 1, which was suspended in an ice-cooled 100 mM potassium phosphate buffer (pH 7.4) (about 4 mg/ml protein concentration). This suspension was used as the enzyme solution.

| Structure (SMILES) | IC50 (squalene synthetase [1]) [nM] | IC50 (squalene synthetase [2]) [nM] |
| --- | --- | --- |
| CC(C)N1C(=O)[C@@H](CC(=O)O)O[C@H](c2ccccc2Cl)c2cc(Cl)ccc21 (relative stereo) | 6300 | 6400 |
| CC(C)(C)CN1C(=O)[C@@H](CC(=O)O)O[C@H](c2ccccc2Cl)c2cc(Br)ccc21 (relative stereo) | 79 | 14 |
| CC(C)(C)CN1C(=O)[C@@H](CC(=O)NCc2nnn[nH]2)O[C@H](c2ccccc2Cl)c2cc(Cl)ccc21 (relative stereo) | 67 | 18 |
| CC(C)(C)CN1C(=O)[C@H](CC(=O)O)O[C@@H](c2ccccc2Cl)c2cc(Cl)ccc21 | > 10000 |  |
| O=C(CC1OC(c2ccccc2Cl)c2cc(Cl)ccc2N(Cc2ccccc2)C1=O)N[C@H](Cc1c[nH]c2ccccc12)C(=O)O (single isomer, unassigned) [W. Ex. 34-5] | 4300 | 4300 |
| CC(C)(C)CN1C(=O)[C@@H](CC(=O)O)O[C@H](c2ccccc2Cl)c2cc(Cl)ccc21 (relative stereo) | 72 | 24 |
| CC(C)(C)CN1C(=O)[C@@H](CC(=O)NCC(=O)O)O[C@H](c2ccccc2Cl)c2cc(Cl)ccc21 | 16 | 6 |
| COc1ccccc1[C@H]1O[C@H](CC(=O)O)C(=O)N(CC(C)(C)C)c2ccc(Cl)cc21 (relative stereo) | 49 | 40 |
| CCC(CC)N1C(=O)[C@@H](CC(=O)NCC(=O)O)O[C@H](c2ccccc2Cl)c2cc(Cl)ccc21 (relative stereo) | 94 | 28 |
| CC(C)(C)CN1C(=O)[C@@H](CC(=O)NCC(=O)O)O[C@H](c2ccccc2Cl)c2cc(Cl)ccc21 (relative stereo) | 28 | 30 |
| O=C(O)C[C@H]1O[C@H](c2ccccc2Cl)c2cc(Cl)ccc2N(CC2CCCCC2)C1=O (relative stereo) | 4000 | 3800 |
| CC(C)CN1C(=O)[C@@H](CC(=O)NCC(=O)O)O[C@H](c2ccccc2Cl)c2cc(Cl)ccc21 (relative stereo) | 35 | 12 |
| COc1cccc([C@H]2O[C@H](CC(=O)O)C(=O)N(CC(C)(C)C)c3ccc(Cl)cc32)c1OC (relative stereo) | 38 | 18 |
| CC(C)(C)CN1C(=O)C(CC(=O)O)OC(c2ccccc2Cl)c2cc(Cl)ccc21 (stereo not shown) | 42 | 16 |
| CC(C)(C)CN1C(=O)[C@@H](CC(=O)O)O[C@H](c2cccc3c2OCO3)c2cc(Cl)ccc21 (relative stereo) | 54 | 22 |
| CC(C)CN1C(=O)[C@@H](CC(=O)NCc2nnn[nH]2)O[C@H](c2ccccc2Cl)c2cc(Cl)ccc21 (relative stereo) | 65 | 34 |
| O=C(CC1OC(c2ccccc2Cl)c2cc(Cl)ccc2N(Cc2ccccc2)C1=O)N[C@H](Cc1c[nH]c2ccccc12)C(=O)O (single isomer, unassigned) [W. Ex. 34-6] | 3400 | 3300 |

Results, then the compound that gave them:

| IC50 (squalene synthetase [1]) [nM] | IC50 (squalene synthetase [2]) [nM] | Structure (SMILES) |
| --- | --- | --- |
| 4900 | 3800 | CCOC(=O)CCNC(=O)C[C@H]1O[C@H](c2ccccc2Cl)c2cc(Cl)ccc2N(Cc2ccccc2)C1=O (relative stereo) |
| 4700 | 5100 | O=C(O)C[C@H]1O[C@H](c2ccccc2Cl)c2cc(Cl)ccc2N(CCc2ccccc2)C1=O (relative stereo) |
| 8300 | 6800 | O=C(O)C[C@H]1O[C@H](c2ccccc2Cl)c2cc(Cl)ccc2N(Cc2ccccc2)C1=O (relative stereo) |
| 7200 | 5300 | O=C(O)CNC(=O)C[C@H]1O[C@H](c2ccccc2Cl)c2cc(Cl)ccc2N(Cc2ccccc2)C1=O (relative stereo) |
| 540 | 710 | CCCN1C(=O)[C@@H](CC(=O)O)O[C@H](c2ccccc2Cl)c2cc(Cl)ccc21 (relative stereo) |
| 61 | 34 | CC(C)CN1C(=O)[C@@H](CC(=O)O)O[C@H](c2ccccc2Cl)c2cc(Cl)ccc21 (relative stereo) |
| 43 | 34 | CC(C)CN1C(=O)[C@@H](CC(=O)O)O[C@H](c2ccccc2Cl)c2cc(Cl)ccc21 |
| 2600 | 2100 | O=C(O)CN(Cc1ccccc1)C(=O)C[C@H]1O[C@H](c2ccccc2Cl)c2cc(Cl)ccc2N(Cc2ccccc2)C1=O (relative stereo) |
